# Literature values, collected in patent publication US5605911A, “Use of alpha-2 adrenergic drugs to prevent adverse effects of NMDA receptor hypofunction (NRH)” (priority 1995, dated 1997).
# Tested on: neurotoxic side effects caused by NMDA antagonists such as PCP or MK-801
# Conditions: Olney et al 1991, U.S. Pat. No. 5,034,400; cited from earlier work
smiles,measurement,value
CCN(CC)CCOC(=O)C(O)(c1ccccc1)c1ccccc1,block of neurotoxic side effects caused by NMDA antagonists,can block the neurotoxic side effects caused by NMDA antagonists
